In PubChem BioAssay AID1481 (The Scripps Research Institute Molecular Screening Center, 2009):
The list shows a part of the results, in another mix than the full data. Activity calls are given as the source filed them. Cut-off read from the data, not from the text of the source: active = inhibition above about 15%; inactive = the rest.

The chains behind the UniProt entries cited, without tags or fusion partners.
UniProt P55072, whole entry: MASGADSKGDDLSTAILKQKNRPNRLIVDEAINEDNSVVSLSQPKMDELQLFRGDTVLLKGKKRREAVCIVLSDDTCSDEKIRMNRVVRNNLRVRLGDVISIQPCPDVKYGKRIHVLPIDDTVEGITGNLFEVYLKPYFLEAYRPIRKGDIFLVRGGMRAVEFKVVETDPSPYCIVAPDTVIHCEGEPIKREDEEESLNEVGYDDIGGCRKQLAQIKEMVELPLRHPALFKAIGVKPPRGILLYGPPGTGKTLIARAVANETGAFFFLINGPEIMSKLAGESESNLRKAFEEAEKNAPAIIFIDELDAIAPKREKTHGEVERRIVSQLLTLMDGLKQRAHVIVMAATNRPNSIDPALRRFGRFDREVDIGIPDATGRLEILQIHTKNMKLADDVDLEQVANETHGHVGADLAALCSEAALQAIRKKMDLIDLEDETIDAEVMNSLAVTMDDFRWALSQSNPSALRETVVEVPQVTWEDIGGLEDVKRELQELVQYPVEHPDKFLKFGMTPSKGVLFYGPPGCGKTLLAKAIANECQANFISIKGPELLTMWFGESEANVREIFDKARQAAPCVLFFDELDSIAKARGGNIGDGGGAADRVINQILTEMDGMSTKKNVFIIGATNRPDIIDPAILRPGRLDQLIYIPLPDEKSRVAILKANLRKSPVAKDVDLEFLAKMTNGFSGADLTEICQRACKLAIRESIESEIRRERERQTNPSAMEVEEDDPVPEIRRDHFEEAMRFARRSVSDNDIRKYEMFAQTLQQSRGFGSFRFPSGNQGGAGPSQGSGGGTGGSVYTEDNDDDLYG

target: Transitional endoplasmic reticulum ATPase (Homo sapiens) (UniProt P55072); assay: p97 ATP hydrolysis blockers – biochemical, primary screen (AID 1481); conditions: recombinant p97 ATPase, Kinase-Glo ATP luminescence, 3 h; at 8 µM; hits give high values;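 note: 0% = DMSO vehicle and 100% = wells lacking enzyme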

Row | Compound | inhibition
1 | COc1ccc(CN(CCCl)CCCl)cc1Cl | inactive: 13.2%
2 | CN(C)c1cccc(C(=O)NCC2(N3CCCCC3)CCCCC2)c1 | inactive: 7.07%
3 | CC(C)c1ccc(NC2CCN(C(=O)OC(C)(C)C)CC2)cc1 | inactive: -1.69%
4 | CN1CCC(Nc2cccc(F)c2)CC1 | inactive: 5.2%
5 | O=C(NCC1(N2CCCCC2)CCCCC1)c1cccc([N+](=O)[O-])c1 | inactive: 2.73%
6 | N#CC1(Nc2ccccc2)CCN(CCc2ccccc2)CC1 | inactive: 1.5%
7 | CN1CCN(CCOC(=O)C(O)(c2ccccc2)c2ccccc2)CC1 | inactive: 5.06%
8 | COc1ccc(NC2CCN(C(=O)OC(C)(C)C)CC2)cc1 | inactive: -0.51%
9 | O=C(NCC1(N2CCOCC2)CCCCC1)c1cc(=O)[nH]c2ccccc12 | inactive: 1.74%
10 | COc1ccc(NC2CCN(CCc3ccccc3)CC2)c(OC)c1 | inactive: -0.33%
11 | CCOc1ccc(C)cc1CN(CCCl)CCCl | inactive: 7.14%
12 | Cc1ccc(OCC(C)C)c(CN(CCCl)CCCl)c1 | inactive: -7.17%
13 | COc1ccc(C(=O)NCC2(N3CCCCC3)CCCCC2)c(OC)c1OC | inactive: 2.62%
14 | CCOC(=O)N1CCC(Nc2ccc(OC)cc2)CC1 | inactive: 4.03%
15 | N#CC1(Nc2ccccc2)CCN(Cc2ccccc2)CC1 | inactive: 4.07%
16 | O=C(OC1CN2CCC1CC2)C1c2ccccc2Oc2ccccc21 (centres undefined) | inactive: -0.9%
17 | O=C(NCC1(N2CCOCC2)CCCCC1)c1cc2ccccc2o1 | inactive: -0.47%
18 | CC(C)(C)OC(=O)N1CCC(Nc2ccccc2)CC1 | inactive: -1.67%
19 | CCOc1ncccc1C(=O)NCC1(N2CCOCC2)CCCCC1 | inactive: -4.47%
20 | CCCOc1ccc(C)cc1CN(CCCl)CCCl | inactive: 11.1%
21 | CCC(CO)(C(=O)OC1CN2CCC1CC2)c1ccccc1 (centres undefined) | inactive: 1.71%
22 | COc1cc(OC)cc(C(=O)NCC2(N3CCOCC3)CCCCC2)c1 | inactive: -3.33%
23 | CN(C)c1ccc(C(=O)NCC2(N3CCCCC3)CCCCC2)cc1 | inactive: 3.61%
24 | CCN1CCC(Nc2cccc(F)c2)CC1 | inactive: 0%
25 | N#Cc1ccc(C(=O)NCC2(N3CCCCC3)CCCCC2)cc1 | inactive: 1.09%
26 | c1ccc(CN2CCC(Nc3ccccc3)CC2)cc1 | inactive: 0.81%
27 | COc1ccc(C(=O)NCC2(N3CCOCC3)CCCCC2)cc1OC | inactive: 3.29%
28 | O=C(OC1CN2CCC1CC2)C1c2ccccc2C=Cc2ccccc21 (centres undefined) | inactive: 3.01%
29 | N/C(=N\O)c1c(N)no[n+]1[O-] | inactive: 3.01%
